Compound activity from PubChem.
B2AR arrestin: beta2AR (human) beta-arrestin recruitment activity; P07550; beta-arrestin recruitment to beta2AR, cell-based reporter; Potency, µM (doses to about 46.1 µM), for inactives: top-dose activation, most hits filed as activators; 330,000 tested, 0.02% active;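 note: potency is the fitted concentration of half-maximal effect; 0% = DMSO controls and full agonism = EC100 isoproterenol or metaproterenol; nearly all actives have a fitted effect of over 65% in size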
Nrf2 activator: Nrf2 pathway activation | Potency, µM (top dose mostly 46.1 µM), inactives show at the top dose activation, most hits filed as activators | AID 624171 | 410,000 tested, 0.31% active | AREc32 ARE-luciferase reporter (MCF7-derived line), luminescence, 24 h; note: potency is the fitted concentration of half-maximal effect; % of control where 0% means no effect; nearly all actives have a fitted effect of over 65% in size
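AREc32 cells carrying an ARE-driven firefly luciferase, 1000 cells/well in OPTI-MEM with 5% FBS, dosed after overnight attachment and incubated 24 hr at 37 deg C. Steady-Glo luminescence read after 30 min at RT.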
Nrf2 inh: inhibitors of Nrf2 signaling. A549 ARE-Fluc reporter, luciferase luminescence, 18-24 h. Potency, µM (highest dose often 46 µM), for the others: at the top dose activity change, negative = inhibition, actives largely listed as inhibitors. 360,000 tested, 2.1% active; note: potency is the fitted concentration of half-maximal effect; % is set by controls: 0 for no effect and ±100 for the full control effect; nearly all actives have a fitted effect of over 60% in size
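Quantitative HTS in A549 cells stably bearing an antioxidant response element-firefly luciferase construct. Inhibition of Nrf2-driven transcription was scored by luminescence after 18-24 h of compound exposure at 37 °C.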
miR-21 FLuc: miR-21 reporter, rising signal; HeLa miR-21 FLuc reporter, luciferase, 48 h; Potency, µM (titrated, usually from 38.3 µM), without a hit: top-dose reporter change, positive = more light; AID 2288; 340,000 tested, under 10 active; active = well fitted rising curve with a large enough effect; inconclusive = small, poorly fitted or top-dose-only effect; inactive = no such curve, though single readings can be large or run the other way;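 further: % of control where 0% means no effect; miR-21 action dims this reporter so a rising signal means less miR-21 action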
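Using DMEM plus 10% FBS, HeLa miR-21-FLuc cells are incubated with test compounds (final up to about 40uM) for 48 hours; firefly luciferase signal is then imaged following reagent-mediated lysis.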
A549 tox-1: kills or reduces viability of A549 cells in Nrf2 counter-screen. A549 ARE-Fluc cells, CellTiter-Fluor viability, 18-24 h. Potency, µM (doses to about 46 µM), inactives show at the top dose activity change, negative = cytotoxicity, actives largely listed as inhibitors. 390,000 tested, 0.16% active. AID 504648; note: potency is the fitted concentration of half-maximal effect; % is set by controls: 0 for no effect and ±100 for the full control effect
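Cytotoxicity counterscreen: CellTiter-Fluor fluorescence was measured in A549 ARE_Fluc cells after 18-24 h of compound exposure in a concentration series. The subsequent BugLite luminescent read reports ARE-luciferase activity.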
FLuc counter 3: firefly luciferase inhibition, Nrf2 hit validation; Potency, µM (titrated, usually from 57.5 µM), inactives show at the top dose activity change, negative = inhibition, hits mostly inhibitors; 1,400 tested, 4% active; purified firefly luciferase, luminescence inhibition; AID 720522; shares compounds with Nrf2 inh; note: potency is the fitted concentration of half-maximal effect; % is set by controls: 0 for no effect and ±100 for the full control effect; nearly all actives have a fitted effect of over 65% in size
A549 tox-2: toxic to A549 ARE-Fluc cells in Nrf2 counterscreen | shares compounds with Nrf2 inh | A549 ARE-Fluc cells, cytotoxicity counterscreen | Potency, µM (highest dose often 46.1 µM), inactives show top-dose activity change, negative = cytotoxicity, usual class: inhibitors | 1,400 tested, 2% active | AID 720523;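 note: potency is the fitted concentration of half-maximal effect; cells exposed to compounds for 18 to 24 hours; % is set by controls: 0 for no effect and ±100 for the full control effect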
Nrf2 ARE inh: Nrf2 inhibition confirmed, A549 ARE-luciferase; Potency, µM (doses to about 46.1 µM), inactives show top-dose activity change, negative = inhibition, hits mostly inhibitors; A549 ARE-firefly luciferase reporter, luminescence; AID 720524; shares compounds with Nrf2 inh; 1,400 tested, 74% active; note: potency is the fitted concentration of half-maximal effect; % is set by controls: 0 for no effect and ±100 for the full control effect; nearly all actives have a fitted effect of over 65% in size
The depositor's hits bear a star; u = inconclusive; x = no result given; [ ] = remark or other dose. In the library only some 2.2% were active in any assay of this set; here they are far more common. Calls come from the whole dose curve; as a rule, active = well fitted curve in the direction sought with a large enough effect; inconclusive = small, poorly fitted or top-dose-only effect, or another doubt; inactive = no such curve, though single readings can be large; an effect the other way counts as inactive or inconclusive.

item	Molecule	B2AR arrestin	Nrf2 activator	Nrf2 inh	miR-21 FLuc	A549 tox-1	FLuc counter 3	A549 tox-2	Nrf2 ARE inh
1	COC(=O)c1ccccc1-c1ccc(/C=N/NC(=O)c2cc3ccccc3o2)o1	0.6%	0.3%	-26.4%	0.6%	0.1%	x	x	x
2	COC(=O)c1ccccc1-c1c2ccc(=N)cc-2oc2cc(N)ccc12	-2.2%	-0.7%	1.16µM*	x	-11.2%	3.2%	-6.3%	8.2µM*
3	O=C(NC1CCCCCCC1)c1cc(COc2ccc3ncccc3c2)on1	-0.1%	0.6%	3.26µM*	19.1%	u	-16.0%	1.7%	2.91µM*
4	Cc1cccnc1CN1CCN(C(=O)c2cc(COc3ccc4ncccc4c3)on2)CC1	-1.0%	3.4%	4.11µM*	25.5%	-16.1%	-0.5%	-2.4%	u
5	O=C(c1cc(COc2ccc3ncccc3c2)on1)N1CCC(O)CC1	0.1%	1.7%	8.2µM*	14.7%	-4.6%	-26.0%	-1.5%	-8.1%
6	Cc1cccc(C)c1OCc1cc(C(=O)NC2CCC2)no1	-0.2%	3.0%	-1.8%	-43.8%	0.7%	x	x	x
7	CCC(O)C1CCN(C(=O)c2cc(COc3ccc4ncccc4c3)on2)CC1 (centres undefined)	0.3%	2.6%	1.84µM*	0.1%	u	-18.8%	-10.8%	1.46µM*
8	COc1ccc(CNC(=O)c2ccc(-c3nc(CSc4ccc(C)cc4)c(C)o3)cc2)c(OC)c1	x	0.5%	-0.4%	2.5%	8.4%	x	x	x
9	Cc1nn(C(C)(C)C)c(OC(=O)c2c(F)cccc2F)c1Sc1ccccc1	x	-0.4%	6.1%[9.27 µM]	27.8%	u	x	x	x
10	O=C(CSc1nc(=O)[nH]c2c1CCCC2)Nc1ccccc1C(F)(F)F	x	2.7%	x	-0.9%	2.8%	x	x	x
11	CC(=O)N1CCc2c(sc3c2c(=O)n(CCc2ccccc2)c(=O)n3Cc2ccc(F)cc2)C1	x	-0.2%	u	23.7%	-28.8%	x	x	x
12	Cc1cc(CN(C)C(=O)c2cc(COc3ccc4ncccc4c3)on2)on1	-0.6%	1.7%	4.61µM*	10.8%	-17.0%	-25.0%	-2.7%	5.17µM*
13	CCSc1nnc(NC(=O)C2CCN(C(=O)c3ccco3)CC2)s1	x	x	u	x	3.2%	x	x	x
14	COc1ccccc1NC(=O)Cn1c(=O)n(-c2ccc(C)cc2)c(=O)c2c1cnn2C	x	0.7%	-0.5%[9.27 µM]	-0.8%	3.1%	x	x	x
15	CN(Cc1c(F)cccc1Cl)C(=O)c1cccc(S(=O)(=O)N2CCN(Cc3ccccc3)CC2)c1	x	2.3%	u	x	0.2%	x	x	x
16	COc1cccc(CN(C)C(=O)c2cccc(S(=O)(=O)N3CCN(c4ccccc4)CC3)c2)c1OC	x	-0.3%	7.31µM*	x	u	0.0%	u	0.116µM*
17	CN(Cc1ccc(OC(F)F)cc1)C(=O)c1cccc(S(=O)(=O)N2CCN(Cc3ccccc3)CC2)c1	x	0.0%	6.51µM*	x	-17.0%	-0.5%	-23.2%	6.51µM*
18	COc1cccc(CN(C)C(=O)c2cccc(S(=O)(=O)NCc3ccccc3)c2)c1OC	0.2%	2.2%	7.31µM*	x	-10.9%	0.0%	-3.0%	-2.7%
19	COc1ccc(CCN(C)C(=O)c2cccc(S(=O)(=O)NCc3ccccc3)c2)cc1OC	0.5%	2.4%	u	1.3%	-5.5%	x	x	x
20	CN(CCOc1ccc(Cl)cc1)C(=O)c1cccc(S(=O)(=O)N2CCN(c3ccccc3)CC2)c1	x	0.3%	5.8µM*	x	u	-0.3%	-13.5%	23.1µM*
21	CN(C)S(=O)(=O)c1ccc2c(c1)N(CC(=O)NCc1cccc(Br)c1)C(=O)CS2	x	-0.5%	17.8%	-3.9%	17.6%	x	x	x
22	COCc1cc(C)nc2c1C(=O)NC(c1ccc(F)cc1)N2Cc1ccccc1 (centres undefined)	x	0.6%	x	-4.9%	7.1%	x	x	x

Three of the compounds above, with two lines to a compound.
Values run as follows: B2AR arrestin	Nrf2 activator	Nrf2 inh	miR-21 FLuc	A549 tox-1	FLuc counter 3	A549 tox-2	Nrf2 ARE inh
9: Cc1nn(C(C)(C)C)c(OC(=O)c2c(F)cccc2F)c1Sc1ccccc1
  x	-0.4%	6.1%[9.27 µM]	27.8%	u	x	x	x
14: COc1ccccc1NC(=O)Cn1c(=O)n(-c2ccc(C)cc2)c(=O)c2c1cnn2C
  x	0.7%	-0.5%[9.27 µM]	-0.8%	3.1%	x	x	x
4: Cc1cccnc1CN1CCN(C(=O)c2cc(COc3ccc4ncccc4c3)on2)CC1
  -1.0%	3.4%	4.11µM*	25.5%	-16.1%	-0.5%	-2.4%	u
